From patent US20230110354A1, “THERAPEUTIC AGENT DELIVERY SYSTEMS AND METHODS OF FORMING AND USES THEREOF” (The Regents of the University of Colorado, a Body Corporate, priority 2020, published 2023)

Tests used:
[1] = delivered intravenously; cited from earlier work
[2] = In vitro protein release test from SRTG micelle system (ELISA); assay type: physicochemical
Method: Proton nuclear magnetic resonance (1H NMR) was completed with a Varian Inova 500 NMR spectrometer. 1H NMR was used to confirm the structure of PEG-PSHU-PEG. The PEG-PSHU-PEG samples to be analyzed were dissolved in 600 μL of DMSO-d6. Protein Release Test. SRTG 5 wt % polymeric solutions (SRTG+VEGF+NPs+PDGF+IL-10) were created using PBS with 0.2% BSA with samples run in triplicates. Solutions were mixed and left to dissolve overnight at 4° C. 500 ng of each of IL-10, the VEGF, and the PDGF was added to the gels at different times. The micelle NPs loaded with the PDGF were added 30 min before gelling, and the VEGF and IL-10 were added 10 min before gelation. 50 μL gels were formed in 2 mL vials and placed in a 37° C. incubator for 5 min to promote gelation and encapsulation of proteins and micelles. Then, 1 mL of warm (37° C.) release solution (lx PBS with 0.2% BSA) was added to the vials. After 5 min, 1 mL of release solution was removed from each sample for the day 0 time point, and 1 mL of fresh warm release solution was added. Samples were then taken every 24 h and immediately placed in a −80° C. freezer for further analysis. Enzyme-linked immunosorbent assay (ELISA) was used to quantify the concentration of proteins in the release solution samples following the manufacturer's instructions (Peprotech, Rocky Hill, N.J.). ELISA color development was monitored with a BioTek Synergy 2 Multi-Mode Reader at 405 nm with wavelength correction set at 650 nm. The results of three replicates were averaged. The hydrogels were initially allowed to stabilize for 5 min at which a sample was taken to determine the loading efficiency of the proteins in the hydrogels (day 0).

## VEGF
[1]
  half-life: over 30 min
[2]; SRTG 5 wt% + micelle NPs, 500 ng of each protein, day 0 sample after 5 min
  loading efficiency of protein in the hydrogel: 79%
[2]; SRTG 5 wt% + micelle NPs, PBS with 0.2% BSA, 37° C.
  loaded protein released by day 1 (burst release): approximately 63%
[2]; after day 0 / day 1 through 28 days, SRTG micelle system
  sustained release rate: 0.77 ng per day
